Values quoted from earlier work in patent EP1935424A1, “PHARMACEUTICAL COMPOSITIONS COMPRISING COMBINED ANTIDIABETIC SUBSTANCES FOR USE IN DIABETES MELLITUS” (ESPINOZA ABDALA, Leopoldo de Jesús, priority 2005, dated 2007).

Settings: oral / gastrointestinal tract, in words

## CN(CCOc1ccc(CC2SC(=O)NC2=O)cc1)c1ccccn1 (stereo not shown) [Rosiglitazone]
  absorption: well absorbed orally
